The values that follow come from ChEMBL document CHEMBL1131435, “Biphenylsulfonamide endothelin antagonists: structure-activity relationships of a series of mono- and disubstituted analogues and pharmacology of the orally active endothelin antagonist 2'-amino-N- (3,4-dimethyl-5-isoxazolyl)-4'-(2-methylpropyl)[1, 1'-biphenyl]-2-sulfonamide (BMS-187308)” (J Med Chem, 1998).

The chains behind the UniProt entries cited, without tags or fusion partners.
UniProt P26684, whole entry: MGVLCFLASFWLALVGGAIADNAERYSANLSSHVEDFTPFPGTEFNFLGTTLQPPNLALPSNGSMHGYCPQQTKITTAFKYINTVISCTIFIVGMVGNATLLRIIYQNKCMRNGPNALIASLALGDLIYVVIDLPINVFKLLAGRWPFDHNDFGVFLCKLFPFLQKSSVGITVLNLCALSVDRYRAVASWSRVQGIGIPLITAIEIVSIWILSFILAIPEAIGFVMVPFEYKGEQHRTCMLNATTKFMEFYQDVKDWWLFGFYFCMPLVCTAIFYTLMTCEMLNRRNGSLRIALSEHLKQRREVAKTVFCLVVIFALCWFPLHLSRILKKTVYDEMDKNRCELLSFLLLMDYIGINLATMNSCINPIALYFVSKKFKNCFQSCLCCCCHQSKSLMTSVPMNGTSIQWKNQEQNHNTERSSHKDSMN

As usually defined, the Ki is a measure of affinity in units of concentration, obtained from inhibition or displacement. A lower Ki goes with tighter binding.

In the assay the target is Endothelin-1 receptor (Rattus norvegicus, UniProt P26684). Nature of the assay: Ability to inhibit binding of [125I]ET1 to membranes prepared from A10 rat thoracic aorta smooth muscle Endothelin A receptor. In kind it is tissue-based.

SMILES strings stand for the structures.

With `Cc1noc(NS(=O)(=O)c2ccccc2N)c1C`, affinity was put at a Ki of 5.9 µM.
